The text below walks through data of BindingDB's records for doi:10.1021/jm070849r (Pfizer, 2008).

Structures are written as SMILES. pIC50: −log10 of the molar value.

This experiment addresses T1, 3-hydroxy-3-methylglutaryl-coenzyme A reductase (Rattus norvegicus, UniProt P51639).
T1 sequence (P51639 whole entry): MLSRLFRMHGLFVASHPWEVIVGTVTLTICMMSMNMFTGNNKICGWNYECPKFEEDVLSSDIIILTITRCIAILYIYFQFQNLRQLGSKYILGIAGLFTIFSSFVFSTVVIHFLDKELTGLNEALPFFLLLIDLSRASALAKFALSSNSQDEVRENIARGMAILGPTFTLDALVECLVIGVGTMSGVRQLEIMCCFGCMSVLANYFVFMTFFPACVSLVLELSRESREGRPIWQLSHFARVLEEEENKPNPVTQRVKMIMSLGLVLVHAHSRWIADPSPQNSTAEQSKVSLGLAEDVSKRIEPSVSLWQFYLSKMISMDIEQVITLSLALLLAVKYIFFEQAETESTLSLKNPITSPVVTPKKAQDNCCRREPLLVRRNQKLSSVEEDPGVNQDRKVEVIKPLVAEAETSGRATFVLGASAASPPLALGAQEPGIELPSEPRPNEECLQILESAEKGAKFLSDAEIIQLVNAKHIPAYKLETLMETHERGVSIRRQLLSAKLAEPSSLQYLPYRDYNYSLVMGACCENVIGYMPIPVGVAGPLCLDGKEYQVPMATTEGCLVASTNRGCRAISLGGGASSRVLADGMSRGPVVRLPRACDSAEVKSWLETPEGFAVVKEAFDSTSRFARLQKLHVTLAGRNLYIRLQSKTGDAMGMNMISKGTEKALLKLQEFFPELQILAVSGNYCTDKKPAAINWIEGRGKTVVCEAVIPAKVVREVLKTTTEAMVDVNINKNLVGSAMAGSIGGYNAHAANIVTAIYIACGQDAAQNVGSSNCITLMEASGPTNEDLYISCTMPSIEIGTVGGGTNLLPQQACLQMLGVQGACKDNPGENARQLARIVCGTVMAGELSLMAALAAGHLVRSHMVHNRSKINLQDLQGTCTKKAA
Put plainly: HMG-CoA Reductase Enzyme Assay and Inhibition of Cellular Cholesterol Synthesis Assay. As to conditions: pH 7.2; 37 °C. How it is done: Enzyme Assay for HMG-CoA reductase was based on the conversion of isotopically labeled HMG-CoA to mevalonic acid using rat liver microsomes as enzyme source. The product, [14C]-mevalonic acid was lactonized and separated from excess substrate via an anion ion exchange resin column, and radioactivity was counted on a scintillation counter. The IC50 values were calculated with GraphPad software (Prism). The cellular assay EC50/IC50 values were obtained from inhibition of cholesterol synthesis in rat hepatocyte.

For orientation: pIC50 means the IC50 on a negative log10 scale, so that one unit is a factor of ten. In the case of `CC(C)c1c(C(=O)N(C)[C@H](C)c2ccccc2)nn(-c2ccc(F)cc2)c1CC[C@@H](O)C[C@@H](O)CC(=O)O` [sodium (3R,5R)-7-[1-(4-fluorophenyl)-3-{methyl[(1R)-1-phenylethyl]carbamoyl}-4-(propan-2-yl)-1H-pyrazol-5-yl]-3,5-dihydroxyheptanoate], the pIC50 is 9.52.

`CC(C)c1c(C(=O)N(C)[C@@H](C)c2ccccc2)nn(-c2ccc(F)cc2)c1CC[C@@H](O)C[C@@H](O)CC(=O)O` [sodium (3R,5R)-7-[1-(4-fluorophenyl)-3-{methyl[(1S)-1-phenylethyl]carbamoyl}-4-(propan-2-yl)-1H-pyrazol-5-yl]-3,5-dihydroxyheptanoate] had a pIC50 of 8.46.
